{"source": "PubChem BioAssay (EPA / NIEHS)", "key": {"[1]": {"read-out": "Thrombomodulin, THBD (gene 7056)", "assay": "BSK_CASM3C_Thrombomodulin: BioMAP Diversity Plus: CASM3C Assay for Thrombomodulin Biomarker Activity (AID 2283051)", "conditions": "actives raise or lower the signal; primary human coronary artery smooth muscle cells"}, "[2]": {"read-out": "Tissue Factor, F3 (gene 2152)", "assay": "BSK_CASM3C_TissueFactor: BioMAP Diversity Plus: CASM3C Assay for Tissue Factor Biomarker Activity (AID 2283052)", "conditions": "actives raise or lower the signal; primary human coronary artery smooth muscle cells"}, "[3]": {"read-out": "Interferon-gamma inducible Protein 10 (IP10), CXCL10 (gene 3627)", "assay": "BSK_hDFCGF_IP10: BioMAP Diversity Plus: hDFCGF Assay for Interferon-gamma inducible Protein 10 (IP10) Biomarker Activity (AID 2283053)", "conditions": "actives raise or lower the signal; primary human foreskin fibroblasts", "method_in_brief": "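Primary human foreskin fibroblasts exposed to chemicals for 24 h. IP-10 measured by ELISA; changes fitted bidirectionally against DMSO baseline.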"}, "[4]": {"read-out": "Urokinase-type plasminogen activator receptor (uPAR), PLAUR (gene 5329)", "assay": "BSK_CASM3C_uPAR: BioMAP Diversity Plus: CASM3C Assay for Urokinase-type plasminogen activator receptor (uPAR) Biomarker Activity (AID 2283054)", "conditions": "actives raise or lower the signal; primary human coronary artery smooth muscle cells"}, "[5]": {"read-out": "Vascular cell adhesion molecule 1 (VCAM1), VCAM1 (gene 7412)", "assay": "BSK_CASM3C_VCAM1: BioMAP Diversity Plus: CASM3C Assay for Vascular cell adhesion molecule 1 (VCAM1) Biomarker Activity (AID 2283055)", "conditions": "actives raise or lower the signal; primary human coronary artery smooth muscle cells"}, "[6]": {"read-out": "Collagen III, COL3A1 (gene 1281)", "assay": "BSK_hDFCGF_CollagenIII: BioMAP Diversity Plus: hDFCGF Assay for Collagen III Biomarker Activity (AID 2283056)", "conditions": "actives raise or lower the signal; primary human foreskin fibroblasts", "method_in_brief": "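ELISA read-out of collagen III from human skin fibroblast cultures sampled 24 h post-dosing. Values were derived by bidirectional fitting relative to the DMSO vehicle control.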"}, "[7]": {"read-out": "Epidermal growth factor receptor (EGFR), EGFR (gene 1956)", "assay": "BSK_hDFCGF_EGFR: BioMAP Diversity Plus: hDFCGF Assay for Epidermal growth factor receptor (EGFR) Biomarker Activity (AID 2283057)", "conditions": "actives raise or lower the signal; primary human foreskin fibroblasts", "method_in_brief": "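Primary human foreskin fibroblasts (hDFCGF system), sampled 24 h after dosing; EGFR quantified by ELISA. Bidirectional fit relative to DMSO baseline; SRB total-protein staining in parallel cultures for cytotoxicity.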"}, "[8]": {"read-out": "Interleukin-8 (IL8), CXCL8 (gene 3576)", "assay": "BSK_hDFCGF_IL8: BioMAP Diversity Plus: hDFCGF Assay for Interleukin-8 (IL8) Biomarker Activity (AID 2283058)", "conditions": "actives raise or lower the signal; primary human foreskin fibroblasts", "method_in_brief": "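Cells used are human skin primary fibroblasts. Chemical is added, cultures run 24 h, then IL-8 is quantified by ELISA, and gain or loss versus DMSO control is fitted in both directions.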"}, "[9]": {"assay": "BSK_hDFCGF_Proliferation: Cell Proliferation Assessment in the BioMAP Diversity Plus: hDFCGF Assay (AID 2283059);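 note: curves fitted for both rise and fall of signal versus DMSO baseline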", "conditions": "primary human foreskin fibroblasts", "method_in_brief": "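Sub-confluent human foreskin fibroblast cultures receive test chemical […]. Relative cell number is quantified by sulforhodamine B staining (0.1%, after 10% TCA fixation) at 560 nm, with bidirectional fitting referenced to DMSO.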"}, "[10]": {"read-out": "Macrophage colony-stimulating factor (MCSF), CSF1 (gene 1435)", "assay": "BSK_hDFCGF_MCSF: BioMAP Diversity Plus: hDFCGF Assay for Macrophage colony-stimulating factor (MCSF) Biomarker Activity (AID 2283060)", "conditions": "actives raise or lower the signal; primary human foreskin fibroblasts", "method_in_brief": "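Primary human foreskin fibroblasts dosed with chemical; 24 h later, M-CSF quantified by ELISA; curves fitted in both directions vs DMSO negative control.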"}, "[11]": {"assay": "BSK_hDFCGF_SRB: Viability Assessment in the BioMAP Diversity Plus: hDFCGF Assay (AID 2283061)", "conditions": "primary human foreskin fibroblasts", "method_in_brief": "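Readout is SRB absorbance at 560 nm, reflecting total protein in parallel cultures of human foreskin fibroblasts harvested 24 h after chemical dosing. Activity was fitted bidirectionally relative to DMSO.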"}, "[12]": {"read-out": "TIMP metallopeptidase inhibitor 1 (TIMP1), TIMP1 (gene 7076)", "assay": "BSK_hDFCGF_TIMP1: BioMAP Diversity Plus: hDFCGF Assay for TIMP metallopeptidase inhibitor 1 (TIMP1) Biomarker Activity (AID 2283062)", "conditions": "actives raise or lower the signal; primary human foreskin fibroblasts", "method_in_brief": "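Human skin fibroblasts (primary), hDFCGF system; compound exposure 24 h; TIMP-1 by ELISA; bidirectional fit vs DMSO negative control; overt cytotoxicity by SRB in parallel wells.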"}, "[13]": {"read-out": "Monokine induced gamma interferon (MIG), CXCL9 (gene 4283)", "assay": "BSK_hDFCGF_MIG: BioMAP Diversity Plus: hDFCGF Assay for Monokine induced gamma interferon (MIG) Biomarker Activity (AID 2283063)", "conditions": "actives raise or lower the signal; primary human foreskin fibroblasts", "method_in_brief": "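Chemicals were added to primary human foreskin fibroblast cultures, which were sampled 24 h later. MIG levels were then quantified by ELISA and responses fitted in both directions relative to DMSO.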"}, "[14]": {"read-out": "Matrix Metallopeptidase 1 (MMP1), MMP1 (gene 4312)", "assay": "BSK_hDFCGF_MMP1: BioMAP Diversity Plus: hDFCGF Assay for Matrix Metallopeptidase 1 (MMP1) Biomarker Activity (AID 2283064)", "conditions": "actives raise or lower the signal; primary human foreskin fibroblasts", "method_in_brief": "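Primary human foreskin fibroblasts exposed to chemicals for 24 h; MMP1 measured by ELISA. Cytotoxicity tracked by SRB staining in parallel cultures; bidirectional fit relative to DMSO.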"}, "[15]": {"read-out": "Vascular cell adhesion molecule 1 (VCAM1), VCAM1 (gene 7412)", "assay": "BSK_hDFCGF_VCAM1: BioMAP Diversity Plus: hDFCGF Assay for Vascular cell adhesion molecule 1 (VCAM1) Biomarker Activity (AID 2283065)", "conditions": "actives raise or lower the signal; primary human foreskin fibroblasts", "method_in_brief": "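Human foreskin fibroblast primary cells, chemical exposure 24 h; VCAM-1 by ELISA; bidirectional fit, DMSO = negative control/baseline.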"}, "[16]": {"read-out": "Plasminogen activator inhibitor-1 (PAI1), SERPINE1 (gene 5054)", "assay": "BSK_hDFCGF_PAI1: BioMAP Diversity Plus: hDFCGF Assay for Plasminogen activator inhibitor-1 (PAI1) Biomarker Activity (AID 2283066)", "conditions": "actives raise or lower the signal; primary human foreskin fibroblasts", "method_in_brief": "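Human foreskin fibroblast primary cells, 24 h chemical exposure; PAI-1 measured by ELISA. Bidirectional fitting relative to DMSO; parallel cultures stained with SRB for total protein to flag overt cytotoxicity.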"}, "[17]": {"read-out": "Intercellular Adhesion Molecule 1 (ICAM1), ICAM1 (gene 3383)", "assay": "BSK_KF3CT_ICAM1: BioMAP Diversity Plus: KF3CT Assay for Intercellular Adhesion Molecule 1 (ICAM1) Biomarker Activity (AID 2283067)", "conditions": "actives raise or lower the signal; primary human keratinocytes with fibroblasts", "method_in_brief": "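ICAM-1 levels are measured by ELISA 24 h after dosing a primary human co-culture of keratinocytes and foreskin fibroblasts. Activity in either direction is fitted relative to DMSO vehicle.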"}, "[18]": {"read-out": "Interferon-gamma inducible Protein 10 (IP10), CXCL10 (gene 3627)", "assay": "BSK_KF3CT_IP10: BioMAP Diversity Plus: KF3CT Assay for Interferon-gamma inducible Protein 10 (IP10) Biomarker Activity (AID 2283068)", "conditions": "actives raise or lower the signal; primary human keratinocytes with fibroblasts", "method_in_brief": "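ELISA read-out of IP-10 after 24 h chemical dosing of human skin primary co-culture (keratinocytes, foreskin fibroblasts). Gain or loss of signal relative to DMSO, bidirectional curve fit.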"}, "[19]": {"assay": "BSK_KF3CT_SRB: Viability Assessment in the BioMAP Diversity Plus: KF3CT Assay (AID 2283069)", "conditions": "primary human keratinocytes with fibroblasts", "method_in_brief": "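Human keratinocyte and foreskin fibroblast co-culture exposed to chemical for 24 h. Total protein measured in parallel cultures by 0.1% sulforhodamine B staining after 10% TCA fixation, read at 560 nm; bidirectional fit relative to DMSO.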"}, "[20]": {"read-out": "Interleukin-1 alpha (IL1a), IL1A (gene 3552)", "assay": "BSK_KF3CT_IL1a: BioMAP Diversity Plus: KF3CT Assay for Interleukin-1 alpha (IL1a) Biomarker Activity (AID 2283070)", "conditions": "actives raise or lower the signal; primary human keratinocytes with fibroblasts", "method_in_brief": "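Primary human keratinocyte plus foreskin fibroblast co-culture, dosed and measured at 24 h in 96-well plates. IL-1a level quantified by ELISA; bidirectional fit relative to DMSO.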"}}, "note": "The list shows a part of the results, in another mix than the full data. Active and inactive are the calls of the source. Rule for the calls: active = hit-call score of the fitted dose curve at least 0.9, where 1 is the maximum; inactive = score below 0.9.", "data": [{"smiles": "CC(C)OP(OC(C)C)OC(C)C", "values": [{"measurement": "outcome", "setting": "[1]", "value": "inactive"}, {"measurement": "outcome", "setting": "[2]", "value": "inactive"}, {"measurement": "outcome", "setting": "[3]", "value": "inactive"}, {"measurement": "outcome", "setting": "[4]", "value": "inactive"}, {"measurement": "outcome", "setting": "[5]", "value": "inactive"}, {"measurement": "outcome", "setting": "[6]", "value": "inactive"}, {"measurement": "outcome", "setting": "[7]", "value": "inactive"}, {"measurement": "outcome", "setting": "[8]", "value": "inactive"}, {"measurement": "outcome", "setting": "[9]", "value": "inactive"}, {"measurement": "outcome", "setting": "[10]", "value": "inactive"}, {"measurement": "outcome", "setting": "[11]", "value": "inactive"}, {"measurement": "outcome", "setting": "[12]", "value": "inactive"}, {"measurement": "outcome", "setting": "[13]", "value": "inactive"}, {"measurement": "outcome", "setting": "[14]", "value": "inactive"}, {"measurement": "outcome", "setting": "[15]", "value": "inactive"}, {"measurement": "outcome", "setting": "[16]", "value": "inactive"}, {"measurement": "outcome", "setting": "[17]", "value": "inactive"}, {"measurement": "outcome", "setting": "[18]", "value": "inactive"}, {"measurement": "outcome", "setting": "[19]", "value": "inactive"}, {"measurement": "outcome", "setting": "[20]", "value": "inactive"}]}, {"smiles": "O=[N+]([O-])c1ccccc1[N+](=O)[O-]", "values": [{"measurement": "AC50", "setting": "[1]", "value": "active: 20 µM"}, {"measurement": "outcome", "setting": "[2]", "value": "inactive"}, {"measurement": "AC50", "setting": "[3]", "value": "active: 20 µM"}, {"measurement": "outcome", "setting": "[4]", "value": "inactive"}, {"measurement": "AC50", "setting": "[5]", "value": "active: 16.3 µM"}, {"measurement": "AC50", "setting": "[6]", "value": "active: 3.5 µM"}, {"measurement": "outcome", "setting": "[7]", "value": "inactive"}, {"measurement": "outcome", "setting": "[8]", "value": "inactive"}, {"measurement": "AC50", "setting": "[9]", "value": "active: 20.4 µM"}, {"measurement": "AC50", "setting": "[10]", "value": "active: 10.6 µM"}, {"measurement": "outcome", "setting": "[11]", "value": "inactive"}, {"measurement": "outcome", "setting": "[12]", "value": "inactive"}, {"measurement": "AC50", "setting": "[13]", "value": "active: 7.37 µM"}, {"measurement": "outcome", "setting": "[14]", "value": "inactive"}, {"measurement": "outcome", "setting": "[15]", "value": "inactive"}, {"measurement": "AC50", "setting": "[16]", "value": "active: 9.74 µM"}, {"measurement": "outcome", "setting": "[17]", "value": "inactive"}, {"measurement": "outcome", "setting": "[18]", "value": "inactive"}, {"measurement": "outcome", "setting": "[19]", "value": "inactive"}, {"measurement": "outcome", "setting": "[20]", "value": "inactive"}]}]}
